Experimental findings from patent US20250281491A1 (published 2025) are described below.

The chains behind the UniProt entries cited, without tags or fusion partners. Where a name states a change or a piece, a line headed by the entry shows the natural chain unless it says otherwise.
UniProt P42336, whole entry: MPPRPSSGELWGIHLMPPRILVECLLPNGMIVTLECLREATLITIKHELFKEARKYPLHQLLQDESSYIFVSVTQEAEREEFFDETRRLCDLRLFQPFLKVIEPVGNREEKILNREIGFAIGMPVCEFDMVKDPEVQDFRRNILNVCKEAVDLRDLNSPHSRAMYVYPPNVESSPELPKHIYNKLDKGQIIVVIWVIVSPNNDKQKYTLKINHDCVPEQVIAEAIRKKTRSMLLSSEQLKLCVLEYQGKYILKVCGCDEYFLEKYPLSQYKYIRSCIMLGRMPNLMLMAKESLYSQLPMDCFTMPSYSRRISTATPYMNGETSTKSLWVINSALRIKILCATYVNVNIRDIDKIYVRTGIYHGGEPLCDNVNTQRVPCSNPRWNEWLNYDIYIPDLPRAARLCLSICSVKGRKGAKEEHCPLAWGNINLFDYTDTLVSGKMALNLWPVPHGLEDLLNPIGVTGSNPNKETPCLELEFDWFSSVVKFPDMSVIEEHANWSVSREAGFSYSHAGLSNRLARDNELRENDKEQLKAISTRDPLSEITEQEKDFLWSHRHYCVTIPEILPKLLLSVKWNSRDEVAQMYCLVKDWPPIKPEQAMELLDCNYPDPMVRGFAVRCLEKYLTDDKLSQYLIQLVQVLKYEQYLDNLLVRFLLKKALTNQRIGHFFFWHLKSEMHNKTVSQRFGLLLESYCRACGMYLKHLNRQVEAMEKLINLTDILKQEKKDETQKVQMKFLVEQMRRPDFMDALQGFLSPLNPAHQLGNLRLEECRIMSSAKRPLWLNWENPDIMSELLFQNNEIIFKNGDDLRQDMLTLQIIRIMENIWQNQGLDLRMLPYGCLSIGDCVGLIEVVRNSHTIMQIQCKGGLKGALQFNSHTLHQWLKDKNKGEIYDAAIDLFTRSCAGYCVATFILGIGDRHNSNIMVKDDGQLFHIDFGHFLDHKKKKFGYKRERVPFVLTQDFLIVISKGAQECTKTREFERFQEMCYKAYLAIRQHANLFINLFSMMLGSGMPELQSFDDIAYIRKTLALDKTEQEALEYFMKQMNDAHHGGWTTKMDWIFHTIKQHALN
UniProt O00329: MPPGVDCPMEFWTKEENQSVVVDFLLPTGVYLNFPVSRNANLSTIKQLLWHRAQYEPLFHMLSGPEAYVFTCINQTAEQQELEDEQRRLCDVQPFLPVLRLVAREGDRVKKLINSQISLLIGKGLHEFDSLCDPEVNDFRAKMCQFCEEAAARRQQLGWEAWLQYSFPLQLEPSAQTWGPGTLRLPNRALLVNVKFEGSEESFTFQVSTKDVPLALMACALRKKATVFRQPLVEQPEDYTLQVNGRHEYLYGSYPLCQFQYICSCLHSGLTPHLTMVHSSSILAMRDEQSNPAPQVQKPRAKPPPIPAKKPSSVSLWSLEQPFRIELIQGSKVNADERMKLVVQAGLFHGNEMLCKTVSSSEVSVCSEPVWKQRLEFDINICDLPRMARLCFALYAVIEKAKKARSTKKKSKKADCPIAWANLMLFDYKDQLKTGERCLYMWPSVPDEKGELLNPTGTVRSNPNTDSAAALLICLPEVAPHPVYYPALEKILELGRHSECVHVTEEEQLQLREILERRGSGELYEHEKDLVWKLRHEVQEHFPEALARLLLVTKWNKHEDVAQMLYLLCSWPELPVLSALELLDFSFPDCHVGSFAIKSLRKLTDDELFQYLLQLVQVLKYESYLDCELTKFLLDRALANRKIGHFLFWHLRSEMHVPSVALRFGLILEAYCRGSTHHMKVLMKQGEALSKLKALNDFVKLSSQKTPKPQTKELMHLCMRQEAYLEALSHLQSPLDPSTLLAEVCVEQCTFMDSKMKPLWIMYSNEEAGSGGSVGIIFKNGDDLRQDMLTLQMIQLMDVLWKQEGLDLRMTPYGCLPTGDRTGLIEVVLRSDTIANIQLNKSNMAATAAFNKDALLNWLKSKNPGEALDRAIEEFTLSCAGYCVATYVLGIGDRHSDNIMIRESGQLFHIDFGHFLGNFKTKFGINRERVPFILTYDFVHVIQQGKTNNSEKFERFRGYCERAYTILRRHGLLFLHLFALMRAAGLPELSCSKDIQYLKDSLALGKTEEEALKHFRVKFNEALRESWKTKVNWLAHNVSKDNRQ

Test [1] has as its target PI3Kα (Homo sapiens, UniProt P42336). Kind of test: PI3K inhibition assay (BPS Bioscience kit, ADP-Glo luminescence).
Test [2] addresses PI3Kδ (Homo sapiens, UniProt O00329). The description is as above.

Regarding `C[C@H](NC(=O)c1c(N)nn2cccnc12)c1cc2cccc(C#Cc3cnn(C)c3)c2c(=O)n1-c1ccccc1` [IPI-549, reference compound], the IC50 in test [1] came out at 187 nM; in test [2], 338 nM.
